This is a sample that favours compounds with a hit; in the whole collection about 1% have one here.
Cneo AK release: causes C. neoformans cell lysis. adenylate kinase release luminescence, 4 h; normalised: neutral wells 0, clomiphene wells 100. AID 651654. lysis activity, % at 15 µM. 360,000 compounds, 0.2% hits;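 active means mean lysis activity across replicates of at least 80%, whatever share of replicates individually reach that level; inactive means mean lysis activity below 80%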
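Material – log-phase Cryptococcus neoformans yeast cells · Input – 5 × 10^6 yeast cells/mL · Medium – fresh YPD growth medium · Doses – single compound concentration per well · Timing – static 4 h at 37 °C with compound, 1 h detection · Detection – adenylate kinase release luminescence · Read-out – signal increase indicating cell lysis · Control set – Clomiphene as positive lysis control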
CDK5 inh: CDK5/p35 (human) kinase inhibition; Recombinant CDK5/p35, ADP-Glo luminescence, 60 min; Q00535+Q15078; inhibition, % at 10 µM; 330,000 compounds, 0.01% hits;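 active means highest replicate inhibition of at least 50% and at least 75% of replicates reaching 50%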;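 further: plate controls were DMSO neutral control for no effect and GW8510 at 10 µM for full effect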
Rtt109 HAT inh: C. albicans Rtt109 histone acetyltransferase inhibition; purified Rtt109/Vps75, ThioGlo CoA-SH fluorescence, 4 h; inhibition, % at 34.9 µM; 330,000 compounds, 0.16% hits; AID 540336;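 active means inhibition of at least 50% in every replicate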
UUG fidelity: modulators of yeast start codon fidelity, primary screen, whole organism, S. cerevisiae, single point, plate reader; activity score, % at 18.7 µM; actives 0.13% (n = 350,000); S. cerevisiae UUG-firefly luciferase reporter, luminescence/redox ratio;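 active = replicate mean at a twofold rise or more, about +100% in these data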;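 also: firefly luciferase made from a UUG start codon reports start codon fidelity; reporter light over untreated wells divided by growth signal over untreated wells; some hits fall short of that in this replicate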
Statin myotox sup: suppression of simvastatin myotoxicity | C2C12 myotubes + simvastatin, ATP luminescence, 48 h; scaled: DMSO 0, geranylgeraniol control 100 | rescue of ATP level, % at 7.49 µM | 330,000 compounds, 0.78% hits | AID 602340;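 active means mean ATP rescue above about 67%, or every replicate alone reaching that limit, limit read from the data, passing the limit was not always enough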;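 further: myotubes were challenged with 10 µM simvastatin during compound exposure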
* = called active by the depositor; . = no result; ! = repeats disagree.

Letters – A = Cneo AK release; B = CDK5 inh; C = Rtt109 HAT inh; D = UUG fidelity; E = Statin myotox sup
1. Cc1noc(C)c1NC(=O)N(C)C[C@H]1Oc2ccc(NC(=O)NC(C)C)cc2CC(=O)N([C@H](C)CO)C[C@@H]1C
  A: 2; B: .; C: .; D: -1; E: -13

2. COc1ccc(S(=O)(=O)N[C@@H]2C=C[C@@H](CC(=O)N3CCC(Cc4ccccc4)CC3)O[C@H]2CO)cc1
  A: 95*; B: .; C: .; D: 9; E: 23

3. O=C(NC1CCCCC1)N[C@H]1C=C[C@@H](CC(=O)N2CCOCC2)O[C@H]1CO
  A: 104*; B: .; C: .; D: .; E: 3

4. O=C(Cc1ccccc1)N[C@H]1C=C[C@@H](CC(=O)N2CCOCC2)O[C@H]1CO
  A: 93*; B: .; C: .; D: 14; E: -8

5. O=C(Cc1ccccc1)N[C@H]1C=C[C@@H](CC(=O)N2CCOCC2)O[C@@H]1CO
  A: 95*; B: .; C: .; D: 5; E: -5

6. O=C(Cc1ccccc1)N[C@H]1C=C[C@H](CC(=O)N2CCOCC2)O[C@@H]1CO
  A: -2; B: .; C: .; D: -6; E: -17

7. CN(C)CC(=O)Nc1ccc2c(c1)[C@@H]1C[C@H](CC(=O)N(C)C)O[C@H](CO)[C@@H]1O2
  A: -6; B: .; C: .; D: -10; E: 1

8. C[C@H](CO)N1C[C@H](C)[C@H](CN(C)C(=O)Nc2cccc3ccccc23)Oc2c(NC(=O)Nc3ccc4c(c3)OCO4)cccc2C1=O
  A: -1; B: .; C: .; D: 11; E: 9

9. CCc1c(C)nc(N2CCN(c3ccc(F)cc3)CC2)[nH]c1=O
  A: 0; B: -1; C: -1; D: -8; E: -6

10. Cc1nnc(N2CCN(c3ccccc3)CC2)[nH]c1=O
  A: 0; B: 1; C: -2; D: -22; E: 98*

11. COC(=O)c1cccc(Oc2nc3c(c(=O)n(C)c(=O)n3C)n2C(C)C)c1
  A: 0; B: 0; C: -3; D: -16; E: 2

12. COC(=O)c1cccc(Oc2cccc(Cl)n2)c1
  A: 0; B: -4; C: 54*; D: -10; E: -7

13. Cc1ccc(CNC(=O)C23CN(Cc4ccccc4)CC2C(c2ccc([N+](=O)[O-])cc2)=NO3)cc1 (configuration not stated)
  A: -1; B: 0; C: -11; D: -41; E: 92*

14. COc1ccc(S(=O)(=O)CCC(=O)NC2CCCCC2)cc1
  A: 0; B: 0; C: 4; D: -14; E: 87*

15. O=C(NCc1ccco1)C(c1ccc(F)cc1)N(CC1CCCO1)C(=O)Cn1nnc2ccccc21 (configuration not stated)
  A: 5; B: 1; C: 1; D: -15; E: 89*

16. C[C@H]1CN([C@@H](C)CO)C(=O)Cc2cc(NS(=O)(=O)c3cn(C)cn3)ccc2O[C@H]1CN(C)Cc1ccc(Oc2ccccc2)cc1
  A: 0; B: .; C: .; D: 8; E: 11

17. C[C@H]1CN([C@@H](C)CO)C(=O)Cc2cc(NS(=O)(=O)c3cn(C)cn3)ccc2O[C@@H]1CN(C)Cc1ccc(-c2ccccc2)cc1
  A: .; B: .; C: .; D: .; E: 88*

18. C[C@H](CO)N1C[C@H](C)[C@@H](CN(C)Cc2ccc(Oc3ccccc3)cc2)Oc2ccc(NS(=O)(=O)c3cn(C)cn3)cc2CC1=O
  A: 110*; B: .; C: .; D: 22; E: -1

19. CO[C@H]1CN(C)C(=O)c2cc(NC(=O)Nc3ccccc3)ccc2OC[C@H](C)N(C(=O)CC2CC2)C[C@@H]1C
  A: -1; B: .; C: .; D: .; E: -21

20. CC1CCN(c2ccc(NC(=O)c3ccc([N+](=O)[O-])o3)cc2)CC1
  A: 2; B: -5; C: -1; D: -8; E: 83*

21. O=C(Nc1cccc(Cl)c1N1CCOCC1)c1cc([N+](=O)[O-])ccc1N1CCOCC1
  A: 0; B: 0; C: -8; D: 7; E: -23

22. O=C(Nc1cccc(Cl)c1N1CCOCC1)c1ccc([N+](=O)[O-])o1
  A: 3; B: 2; C: -3; D: -9; E: 97*

23. CC(C)(C)C(=O)N1CCN(c2ccc(NC(=O)c3ccc([N+](=O)[O-])o3)cc2)CC1
  A: 0; B: 0; C: 3; D: -7; E: 133*

24. O=C(c1ccco1)N1N=C(c2ccccc2O)CC1c1cccs1 (configuration not stated)
  A: 0; B: .; C: .; D: 18; E: 70*

25. c1ccc(-c2ccccc2OCCCN2CCOCC2)cc1
  A: .; B: -1; C: .; D: .; E: .

Reprinted at random: two entries already listed
Letters – A = Cneo AK release; B = CDK5 inh; C = Rtt109 HAT inh; D = UUG fidelity; E = Statin myotox sup
11. COC(=O)c1cccc(Oc2nc3c(c(=O)n(C)c(=O)n3C)n2C(C)C)c1
  A: 0; B: 0; C: -3; D: -16; E: 2

5. O=C(Cc1ccccc1)N[C@H]1C=C[C@@H](CC(=O)N2CCOCC2)O[C@@H]1CO
  A: 95*; B: .; C: .; D: 5; E: -5

Next part.
Letters – A = Cneo AK release; B = CDK5 inh; C = Rtt109 HAT inh; D = UUG fidelity; E = Statin myotox sup
26. Fc1ccccc1OCCCN1CCOCC1
  A: -2; B: -2; C: 0; D: 1; E: 169*

27. O=C1C2C3C=CC(C3)C2C(=O)N1c1ccncc1 (configuration not stated)
  A: -1; B: 1; C: -4; D: -12; E: 1

28. Cc1ccnc2c(N3C(=O)C4C5C=CC(C5)C4C3=O)cccc12 (configuration not stated)
  A: -1; B: 0; C: -3; D: 1; E: 121*

29. CN(C(=O)CCc1nc(-c2ccccc2F)no1)c1ccccc1
  A: .; B: 1; C: 55*; D: .; E: .

30. COC(=O)CNC(=O)C1CCCN1C(=O)CNC(=O)OCc1ccccc1 (configuration not stated)
  A: .; B: -2; C: 9; D: .; E: .

31. COC(=O)C1CCCN1C(=O)C1CCCN1C(=O)CNC(=O)OCc1ccccc1 (configuration not stated)
  A: -1; B: 0; C: -5; D: 3; E: 82*

32. COc1ccc(CCN2C(=O)CCC2(C)C(=O)NCc2cccnc2)cc1OC (configuration not stated)
  A: 1; B: 0; C: 4; D: -11; E: 22

33. COc1ccc(CN2C(=O)CCC2(C)C(=O)NCc2cccnc2)c(OC)c1 (configuration not stated)
  A: 1; B: 0; C: 2; D: 4; E: 92*

34. Cc1noc(C)c1NC(=O)Nc1ccc2c(c1)CC(=O)N([C@@H](C)CO)C[C@H](C)[C@@H](CN(C)S(=O)(=O)c1c(C)noc1C)O2
  A: -2; B: .; C: .; D: 2; E: -20

35. COc1ccc(C(=O)N2c3ccc(F)cc3CCC2C)cc1OC (configuration not stated)
  A: -1; B: -1; C: 0; D: 0; E: 5

36. COc1cc(OC)cc(C(=O)N2c3ccc(F)cc3CCC2C)c1 (configuration not stated)
  A: 0; B: 0; C: 2; D: -5; E: 90*

37. COC(=O)N(C)C[C@H]1OCc2cn(nn2)CCCC(=O)N([C@@H](C)CO)C[C@@H]1C
  A: 84*!; B: .; C: .; D: 19; E: -1

38. C[C@H](CO)N1C[C@H](C)[C@H](CN(C)S(=O)(=O)c2cccc(C#N)c2)OCc2ccccc2-c2ccccc2C1=O
  A: -1; B: .; C: .; D: .; E: -5

39. COc1cccc(S(=O)(=O)N(C)C[C@H]2OCc3ccccc3-c3ccccc3C(=O)N([C@H](C)CO)C[C@H]2C)c1
  A: 0; B: .; C: .; D: .; E: -5

40. COc1cccc(S(=O)(=O)N(C)C[C@@H]2OCc3cnnn3CCCC(=O)N([C@H](C)CO)C[C@H]2C)c1
  A: 0; B: .; C: .; D: 3; E: 1

41. COc1cccc(S(=O)(=O)N(C)C[C@H]2OCc3cnnn3CCCC(=O)N([C@H](C)CO)C[C@H]2C)c1
  A: 103*!; B: .; C: .; D: 6; E: 13

42. COc1cccc(S(=O)(=O)N(C)C[C@@H]2OCc3ccccc3-c3ccccc3C(=O)N([C@@H](C)CO)C[C@@H]2C)c1
  A: 100*; B: .; C: .; D: .; E: .

43. C[C@@H]1CN([C@H](C)CO)C(=O)c2ccccc2-c2ccccc2CO[C@H]1CN(C)S(=O)(=O)c1cccc(C#N)c1
  A: 95*; B: .; C: .; D: .; E: .

44. CN1C(=O)c2cc(NC(=O)c3ccc(Cl)cc3)ccc2OC[C@H]2O[C@@H](CC(=O)O)CC[C@@H]21
  A: -2; B: .; C: .; D: .; E: -2

45. O=C1NC(=O)C2(CCc3ccccc32)N1 (configuration not stated)
  A: -1; B: -2; C: 12; D: -6; E: 65*

Three compounds from above, ordered by their value in Rtt109 HAT inh, smallest number first:
No. | SMILES | CDK5 inh | Rtt109 HAT inh | UUG fidelity
31 | COC(=O)C1CCCN1C(=O)C1CCCN1C(=O)CNC(=O)OCc1ccccc1 (configuration not stated) | 0 | -5 | 3
26 | Fc1ccccc1OCCCN1CCOCC1 | -2 | 0 | 1
36 | COc1cc(OC)cc(C(=O)N2c3ccc(F)cc3CCC2C)c1 (configuration not stated) | 0 | 2 | -5

Screening results: PubChem, Broad Institute
